Results as given in ChEMBL document CHEMBL4145666, “In Search of Selectivity in Inhibition of ADAM10” (ACS Med Chem Lett, 2018).

Amino acid sequences for entries named in this document (tags omitted). A change or cut given only in a name is not applied to a line headed by its entry.
UniProt P08253: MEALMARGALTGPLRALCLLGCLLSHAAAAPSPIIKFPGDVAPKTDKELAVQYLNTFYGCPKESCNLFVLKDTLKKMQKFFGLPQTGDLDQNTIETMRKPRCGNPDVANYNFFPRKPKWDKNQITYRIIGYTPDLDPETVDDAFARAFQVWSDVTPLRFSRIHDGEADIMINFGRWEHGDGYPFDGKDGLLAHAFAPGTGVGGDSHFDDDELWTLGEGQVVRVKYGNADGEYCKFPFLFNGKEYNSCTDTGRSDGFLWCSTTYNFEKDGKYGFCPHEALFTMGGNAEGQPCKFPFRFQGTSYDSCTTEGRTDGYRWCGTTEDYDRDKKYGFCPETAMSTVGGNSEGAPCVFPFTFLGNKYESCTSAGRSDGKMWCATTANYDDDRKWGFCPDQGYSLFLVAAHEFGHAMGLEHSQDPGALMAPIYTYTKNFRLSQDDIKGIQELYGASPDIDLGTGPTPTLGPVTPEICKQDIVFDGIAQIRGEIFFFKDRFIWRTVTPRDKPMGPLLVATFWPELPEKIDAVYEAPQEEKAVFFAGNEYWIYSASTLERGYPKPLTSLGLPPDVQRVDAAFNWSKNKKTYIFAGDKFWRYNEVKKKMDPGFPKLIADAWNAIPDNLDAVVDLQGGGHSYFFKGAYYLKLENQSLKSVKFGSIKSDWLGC

How the values were obtained:
[1] = target: 72 kDa type IV collagenase (Homo sapiens, UniProt P08253); test: Inhibition of APMA activated recombinant human full length MMP2 expressed in mouse cells using MOCAc-Pro-Leu-Gly-Leu-A2pr(Dnp)-Ala-Arg-NH2 as substrate by fluorescence spectrophotometric method; type: cell-based
Matrilysin = target: T1, Matrilysin (Homo sapiens, UniProt P09237); test: Inhibition of recombinant human MMP7 expressed in Escherichia coli using MOCAc-Pro-Leu-Gly-Leu-A2pr(Dnp)-Ala-Arg-NH2 as substrate by fluorescence spectrophotometric method
T1 sequence (P09237 whole entry): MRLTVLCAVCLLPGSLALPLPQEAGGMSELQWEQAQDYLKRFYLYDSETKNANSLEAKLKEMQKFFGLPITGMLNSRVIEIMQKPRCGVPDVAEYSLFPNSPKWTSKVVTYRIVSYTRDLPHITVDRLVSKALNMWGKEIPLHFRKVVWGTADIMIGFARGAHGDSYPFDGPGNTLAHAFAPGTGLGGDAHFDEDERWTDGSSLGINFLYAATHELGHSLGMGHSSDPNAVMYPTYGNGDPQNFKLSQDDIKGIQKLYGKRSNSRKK

Ki [1]: 1.37 nM | Ki (Matrilysin): 75 nM
Compound: CN1CC2(CC2)C[C@H](C(=O)NO)[C@H]1C(=O)N1CCN(c2ccc(C(F)(F)F)cn2)CC1
